In the experiment the target is monoacylglycerol lipase (MAGL) (Rattus norvegicus, UniProt Q8R431). Description: cell-based. The conditions noted are these: read-out: % reduction of bound activity at 10 μM.

The chains behind the UniProt entries cited, without tags or fusion partners.
UniProt Q8R431, whole entry: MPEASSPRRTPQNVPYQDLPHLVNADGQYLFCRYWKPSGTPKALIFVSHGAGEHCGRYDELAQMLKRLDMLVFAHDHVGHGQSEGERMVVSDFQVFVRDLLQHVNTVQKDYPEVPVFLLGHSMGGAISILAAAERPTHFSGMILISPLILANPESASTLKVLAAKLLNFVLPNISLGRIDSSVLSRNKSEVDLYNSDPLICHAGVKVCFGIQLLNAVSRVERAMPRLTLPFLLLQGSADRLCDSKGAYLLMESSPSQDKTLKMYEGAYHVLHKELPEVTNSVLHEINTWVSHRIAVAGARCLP

Turning to `O=C(OC(C(F)(F)F)C(F)(F)F)N1CCC(C(O)(c2ccc3c(c2)OCO3)c2ccc3c(c2)OCO3)CC1` [KML29], the inhibition at 10 µM was 35 to 49%.
